Each structure is given as a SMILES string.

Chains of the proteins cited; added tags and fusions are not shown. Residues count along the entry.
UniProt Q13224, 27-1484: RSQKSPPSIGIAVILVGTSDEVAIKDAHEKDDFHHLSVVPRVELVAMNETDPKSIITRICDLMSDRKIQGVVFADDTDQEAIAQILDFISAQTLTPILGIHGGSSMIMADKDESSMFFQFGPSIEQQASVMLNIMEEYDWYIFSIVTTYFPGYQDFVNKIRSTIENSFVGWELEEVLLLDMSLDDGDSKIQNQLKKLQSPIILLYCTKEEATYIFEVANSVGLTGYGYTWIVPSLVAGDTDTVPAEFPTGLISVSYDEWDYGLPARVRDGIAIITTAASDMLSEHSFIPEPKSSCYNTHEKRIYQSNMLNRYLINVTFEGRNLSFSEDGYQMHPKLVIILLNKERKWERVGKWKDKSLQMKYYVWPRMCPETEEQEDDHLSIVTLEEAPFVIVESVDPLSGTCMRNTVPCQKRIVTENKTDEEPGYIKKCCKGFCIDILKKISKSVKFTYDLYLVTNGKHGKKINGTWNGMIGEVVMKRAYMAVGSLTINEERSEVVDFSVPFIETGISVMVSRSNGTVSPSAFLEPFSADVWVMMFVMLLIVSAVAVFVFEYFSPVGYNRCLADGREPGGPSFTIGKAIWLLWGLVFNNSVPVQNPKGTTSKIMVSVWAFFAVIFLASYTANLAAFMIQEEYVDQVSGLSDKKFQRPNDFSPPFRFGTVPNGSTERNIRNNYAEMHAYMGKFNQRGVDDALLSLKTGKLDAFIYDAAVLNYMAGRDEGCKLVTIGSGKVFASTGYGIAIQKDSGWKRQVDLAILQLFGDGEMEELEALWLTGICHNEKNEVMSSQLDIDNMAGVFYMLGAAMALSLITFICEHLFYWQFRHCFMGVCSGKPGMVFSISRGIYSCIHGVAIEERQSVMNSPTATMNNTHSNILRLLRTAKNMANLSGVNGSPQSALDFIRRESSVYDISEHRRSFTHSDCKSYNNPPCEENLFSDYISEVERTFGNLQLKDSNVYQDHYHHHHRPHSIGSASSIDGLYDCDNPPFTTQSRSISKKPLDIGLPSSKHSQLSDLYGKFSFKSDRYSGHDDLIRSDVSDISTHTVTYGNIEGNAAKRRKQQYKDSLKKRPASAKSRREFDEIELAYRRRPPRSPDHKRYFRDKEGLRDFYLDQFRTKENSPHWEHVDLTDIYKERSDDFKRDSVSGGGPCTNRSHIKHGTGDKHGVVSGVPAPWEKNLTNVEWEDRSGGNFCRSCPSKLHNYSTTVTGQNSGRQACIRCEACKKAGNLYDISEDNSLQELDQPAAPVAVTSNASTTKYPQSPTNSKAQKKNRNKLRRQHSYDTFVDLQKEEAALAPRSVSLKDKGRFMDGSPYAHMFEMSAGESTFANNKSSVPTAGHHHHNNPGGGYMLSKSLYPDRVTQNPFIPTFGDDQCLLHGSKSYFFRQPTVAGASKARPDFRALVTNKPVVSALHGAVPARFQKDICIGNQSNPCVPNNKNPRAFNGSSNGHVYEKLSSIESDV
UniProt Q12879, 23-1464: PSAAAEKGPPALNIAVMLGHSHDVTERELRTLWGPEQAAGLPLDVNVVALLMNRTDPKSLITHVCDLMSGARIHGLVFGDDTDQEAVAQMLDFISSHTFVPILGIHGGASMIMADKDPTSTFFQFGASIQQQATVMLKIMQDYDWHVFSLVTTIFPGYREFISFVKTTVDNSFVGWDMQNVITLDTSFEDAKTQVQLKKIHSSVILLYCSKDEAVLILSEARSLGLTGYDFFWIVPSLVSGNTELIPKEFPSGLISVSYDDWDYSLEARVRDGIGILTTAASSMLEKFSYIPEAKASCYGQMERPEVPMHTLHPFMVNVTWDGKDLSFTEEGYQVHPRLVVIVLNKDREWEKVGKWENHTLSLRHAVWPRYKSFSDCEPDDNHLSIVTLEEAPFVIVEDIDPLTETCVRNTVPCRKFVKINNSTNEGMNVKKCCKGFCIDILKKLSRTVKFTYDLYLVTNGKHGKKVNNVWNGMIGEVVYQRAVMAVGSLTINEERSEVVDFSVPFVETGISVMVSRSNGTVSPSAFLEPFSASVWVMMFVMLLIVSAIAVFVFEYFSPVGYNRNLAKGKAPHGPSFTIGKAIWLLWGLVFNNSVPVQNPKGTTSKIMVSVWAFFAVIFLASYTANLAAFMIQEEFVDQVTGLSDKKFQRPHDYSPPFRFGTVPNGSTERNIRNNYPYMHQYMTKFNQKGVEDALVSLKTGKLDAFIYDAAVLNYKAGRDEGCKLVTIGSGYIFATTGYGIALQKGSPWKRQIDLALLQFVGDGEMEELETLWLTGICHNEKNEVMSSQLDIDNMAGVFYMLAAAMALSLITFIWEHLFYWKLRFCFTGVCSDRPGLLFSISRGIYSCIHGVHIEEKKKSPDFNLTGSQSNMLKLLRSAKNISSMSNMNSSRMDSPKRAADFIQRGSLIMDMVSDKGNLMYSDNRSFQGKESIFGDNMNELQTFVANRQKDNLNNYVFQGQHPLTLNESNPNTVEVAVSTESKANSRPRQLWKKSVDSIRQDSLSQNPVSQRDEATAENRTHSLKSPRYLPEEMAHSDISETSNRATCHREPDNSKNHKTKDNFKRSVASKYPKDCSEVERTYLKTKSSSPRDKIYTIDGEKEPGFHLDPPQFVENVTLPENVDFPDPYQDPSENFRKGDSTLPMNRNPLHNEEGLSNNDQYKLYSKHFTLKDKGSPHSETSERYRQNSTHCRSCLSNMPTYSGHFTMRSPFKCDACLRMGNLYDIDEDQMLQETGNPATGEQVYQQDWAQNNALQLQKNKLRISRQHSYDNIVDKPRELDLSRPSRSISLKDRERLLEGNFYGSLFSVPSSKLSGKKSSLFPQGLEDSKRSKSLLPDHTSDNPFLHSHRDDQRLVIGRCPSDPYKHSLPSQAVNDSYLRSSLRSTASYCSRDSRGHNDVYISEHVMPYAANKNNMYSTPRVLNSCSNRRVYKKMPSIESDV

The record followed here is patent publication US11149054B2, “Oxysterols and methods of use thereof” (Sage Therapeutics, Inc., priority 2016, dated 2021).

In assay [1] the target is GluN2B glutamate receptors (Homo sapiens (Human), UniProt Q05586+Q13224). The assay can be described thus: Whole-cell patch clamp of mammalian cells (Ionworks Barracuda), positive allosteric modulation, GluN2B. The class given is cell-based. Conditions: co-application with EC20 L-glutamate and 30 μM glycine; 8-point concentration-response; read-out: Avg EC50 2B. On the procedure:
(§1) The measurements were performed using Ion Works Barracuda platform following this procedure:
(§2) Electrophysiological Procedures:
(§3) • a) Intracellular solution (mM): 50 mM CsCl, 90 mM CsF, 2 mM MgCl2, 5 mM EGTA, 10 mM HEPES. Adjust to pH 7.2 with CsOH. • b) Extracellular solution, HB-PS (composition in mM): NaCl, 137; KCl, 1.0; CaCl2), 5; HEPES, 10; Glucose, 10; pH adjusted to 7.4 with NaOH (refrigerated until use). • c) Holding potential: −70 mV, potential during agonist/PAM application: −40 mV. Recording Procedure: • a) Extracellular buffer will be loaded into the PPC plate wells (11 μL per well). Cell suspension will be pipetted into the wells (9 μL per well) of the PPC planar electrode. • b) Whole-cell recording configuration will be established via patch perforation with membrane currents recorded by on-board patch clamp amplifiers. • c) Two recordings (scans) will be performed. First, during pre-application of test article alone (duration of pre-application—[…]) and second, during test articles and agonist (EC20 L-glutamate and 30 μM glycine) co-application to detect positive modulatory effects of the test article. […] Potentiating Effect of Positive Allosteric Modulators (PAM) on the Channel
PAM concentration-response data will be fitted to an equation of the form: % Activation=% L-glutamate EC20+{(% MAX−% L-glutamate EC20)/[1+([Test]/EC50)^N]}, where [Test] will be the concentration of PAM (test article), EC50 will be the concentration of PAM producing half-maximal activation, N will be the Hill coefficient, % L-glutamate EC20 will be the percentage of the current Elicited with L-glutamate EC20, % MAX is the percentage of the current activated with the highest dose of PAM co-admitted with L-glutamate EC20 and % Activation will be the percentage of the current elicited with L-glutamate EC10-30 at each PAM concentration. The maximal amplitude of the evoked currents are measured and defined as Peak Current Amplitude (PCA).
(Patch clamp records ionic current or voltage across a cell membrane.)

Assay [2] addresses GlunN1/GluN2A glutamate receptors (Homo sapiens (Human), UniProt Q05586+Q12879). Nature of the assay: Whole-cell patch clamp of mammalian cells (Ionworks Barracuda), positive allosteric modulation, GluN1/GluN2A. Format: cell-based. Conditions: HEK293 cells; co-application with EC20 L-glutamate and 30 μM glycine; 8-point concentration-response; read-out: Avg EC50 2A. On the procedure: as §1, §2
as §3, with “Channel […]” for “Channel”

What is called EC50 is the midpoint of the concentration-response curve. For the molecule `C[C@H](CCC(C)(C)O)[C@H]1CC[C@H]2[C@@H]3CC=C4C[C@](O)(C(F)(F)F)CC[C@]4(C)[C@H]3CC[C@]12C` [Compound 1839], in assay [1], the EC50 worked out at 148 nM.

In the case of `CC[C@]1(O)CC[C@H]2C(=CC[C@@H]3[C@@H]2CC[C@]2(C)[C@@H]([C@H](C)CCCC(C)(C)O)CC[C@@H]32)C1` [Compound 194], the EC50 in assay [1] worked out at 144 nM.

For the molecule `C[C@H](CCC1(O)CCC(C)(C)CC1)[C@H]1CC[C@H]2[C@@H]3CC[C@H]4C[C@](O)(C(F)(F)F)CC[C@]4(C)[C@H]3CC[C@]12C` [Compound E-2817], the 50% effective concentration (EC50) in assay [2] stood at 5070 nM; in assay [1], 5370 nM.
